Antibody variant affinities, Ab-14 heavy chain, assay 1

All variants were tested on one target, the spike HR2 peptide PDVDLGDISGINAS (SARS-CoV-2).

The variants keep the light chain, the linker and the frameworks of Ab-14 (scFv order VH, the linker GGGGSGGGGSGGGGS, VL).
VH: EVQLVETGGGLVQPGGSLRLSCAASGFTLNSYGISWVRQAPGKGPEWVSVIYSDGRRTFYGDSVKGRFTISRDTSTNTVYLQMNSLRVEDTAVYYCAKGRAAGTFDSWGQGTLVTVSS
VL: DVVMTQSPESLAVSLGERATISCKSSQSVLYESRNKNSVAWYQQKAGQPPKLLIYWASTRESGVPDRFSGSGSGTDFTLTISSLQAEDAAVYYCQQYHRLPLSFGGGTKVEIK

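Phage display of a naive human antibody library on the peptide gave the parent. In library AAYL49, one, two or three CDR residues were substituted; doubles and triples were drawn at random. The assay is AlphaSeq: two haploid yeast populations carry antibody and antigen on their surface. After mating in shaken culture at 30 °C for 16 h, diploids were selected and their barcode pairs sequenced. Scores were corrected for input abundance and mapped to Kd with protein pairs of known affinity run in the same pool. There are three technical replicates.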

The whole VH of each variant is written out.
Every variant below is changed at S63 of the VH (sequential numbering).
Values are log10 of the apparent Kd in nM; lower means stronger binding.
The mean shown is taken over the replicates in which the pair was detected.
"nd" means that the variant was in the library but no mating with the target was seen in that replicate; the authors take this as a sign of poor binding, and no number exists.
Order: sorted from the lowest average up, undetected variants last.
Background: pairings of library AAYL49 with three empty control strains gave a value in 15% of cases (median 4.06, 5th percentile 2.83). Values in that range, when seen in few replicates, are hard to tell from nonspecific mating.

* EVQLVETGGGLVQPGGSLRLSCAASGFTLASYGISWVRQAPGKGPEWVSVIYSDGRRTFYRDEVKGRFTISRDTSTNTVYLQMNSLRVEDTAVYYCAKGRAAGTFDSWGQGTLVTVSS: 0.92, 0.97, 0.99 (mean 0.96)
* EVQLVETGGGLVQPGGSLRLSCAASGFTLNSYGISWVRQAPGKGPEWVSVIYSDGVRTFYGDKVCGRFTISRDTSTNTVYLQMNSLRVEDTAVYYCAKGRAAGTFDSWGQGTLVTVSS: 1.80, 2.25, 1.97 (mean 2.00)
* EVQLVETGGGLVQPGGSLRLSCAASGFTLNSYGISWVRQAPGKGPEWVSVIYSDGKRKFYGDMVKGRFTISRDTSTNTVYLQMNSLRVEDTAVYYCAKGRAAGTFDSWGQGTLVTVSS: 2.81, 1.93, 2.28 (mean 2.34)
* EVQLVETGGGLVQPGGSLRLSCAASGFTLWSYGISWVRQAPGKGPEWVSVIYSDGRRTFYGDQDKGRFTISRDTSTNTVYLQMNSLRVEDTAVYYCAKGRAAGTFDSWGQGTLVTVSS: nd, 3.20, nd
* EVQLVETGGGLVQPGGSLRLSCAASGFKLNSYFISWVRQAPGKGPEWVSVIYSDGRRTFYGDYVKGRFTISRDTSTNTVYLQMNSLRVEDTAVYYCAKGRAAGTFDSWGQGTLVTVSS: nd, 3.44, nd
* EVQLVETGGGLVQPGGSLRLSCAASGFTLNSYGISWVRQAPGKGPEWVSVIYLDGRRTFYGDHVKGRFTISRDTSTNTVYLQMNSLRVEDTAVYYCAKGRASGTFDSWGQGTLVTVSS: nd, 3.50, nd
* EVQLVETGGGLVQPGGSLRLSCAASGFTLNSYGISWVRQAPGKGPEWVSVIYSDGRRQFYGDYVKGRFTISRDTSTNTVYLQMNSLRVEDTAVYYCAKGRAAGTYDSWGQGTLVTVSS: nd, 3.64, nd
* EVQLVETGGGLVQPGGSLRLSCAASGFTLNSYGISWVRQAPGKGPEWVSVIYSDGRRTFYGDPTKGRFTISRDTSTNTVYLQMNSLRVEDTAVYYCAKGRAAGEFDSWGQGTLVTVSS: nd, nd, 3.64
* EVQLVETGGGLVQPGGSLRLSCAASGFTLFSYGISWVRQAPGKGPEWVSVIYSDGRRTFHGDEVKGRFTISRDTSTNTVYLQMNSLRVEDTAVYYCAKGRAAGTFDSWGQGTLVTVSS: nd, 3.98, nd
* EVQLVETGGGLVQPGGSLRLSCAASGFTLNSYGISWVRQAPGKGPEWVSVIYSDGRRTFYGKRVKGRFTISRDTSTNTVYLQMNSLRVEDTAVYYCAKGRAAGTFDSWGQGTLVTVSS: 4.30, 3.75, nd (mean 4.02)
* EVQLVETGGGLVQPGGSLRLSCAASGFTLNSYGISWVRQAPGKGPEWVSVHYSDGRRTFYGHEVKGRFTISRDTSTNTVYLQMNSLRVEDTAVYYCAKGRAAGTFDSWGQGTLVTVSS: 4.74, 3.36, nd (mean 4.05)
* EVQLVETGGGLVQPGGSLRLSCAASGFTLNSYGISWVRQAPGKGPEWVSVIYFHGRRTFYGDVVKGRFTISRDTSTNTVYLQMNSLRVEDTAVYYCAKGRAAGTFDSWGQGTLVTVSS: nd, 4.09, nd
* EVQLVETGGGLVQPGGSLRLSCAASGFMLNSYGISWVRQAPGKGPEWVSVIWSDGRRTFYGDDVKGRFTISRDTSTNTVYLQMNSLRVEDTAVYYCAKGRAAGTFDSWGQGTLVTVSS: nd, 3.56, 4.84 (mean 4.20)
* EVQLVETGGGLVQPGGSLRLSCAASGFTLNSYGHSWVRQAPGKGPEWVSVIYSDGRETFYGDMVKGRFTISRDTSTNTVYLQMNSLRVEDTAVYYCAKGRAAGTFDSWGQGTLVTVSS: 5.15, 3.28, nd (mean 4.21)
* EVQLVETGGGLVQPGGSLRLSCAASGFTLNSYGISWVRQAPGKGPEWVSVIYSDGRRTRYGDIVGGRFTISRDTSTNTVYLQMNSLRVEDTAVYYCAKGRAAGTFDSWGQGTLVTVSS: nd, 4.19, 4.24 (mean 4.22)
* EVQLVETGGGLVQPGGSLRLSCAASGFTLNSGGISWVRQAPGKGPEWVSVIYWDGRRTFYGDPVKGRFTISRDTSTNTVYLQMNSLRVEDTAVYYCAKGRAAGTFDSWGQGTLVTVSS: nd, nd, 4.63
* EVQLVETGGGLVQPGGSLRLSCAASGFTLNSYGISWVRQAPGKGPEWVSVIYSDMRRTFYGDRVKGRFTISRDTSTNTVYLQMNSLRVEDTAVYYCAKGRAAGAFDSWGQGTLVTVSS: nd, nd, 4.77
* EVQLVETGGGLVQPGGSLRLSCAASGFTLNSYGISWVRQAPGKGPEWVSVIYSDGRRTFYGDKVKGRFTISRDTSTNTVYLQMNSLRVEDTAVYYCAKGRAWGTFDSWGQGTLVTVSS: 5.85, nd, nd
* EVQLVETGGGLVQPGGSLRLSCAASGFTLNSYAISWVRQAPGKGPEWVSVIYSDGRRTFYGDCVKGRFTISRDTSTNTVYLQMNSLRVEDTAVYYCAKYRAAGTFDSWGQGTLVTVSS: nd, nd, nd
* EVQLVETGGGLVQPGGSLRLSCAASGFTLNSYGISWVRQAPGKGPEWVSVIYSDGRREFYGDLVKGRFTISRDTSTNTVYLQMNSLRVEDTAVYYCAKGEAAGTFDSWGQGTLVTVSS: nd, nd, nd
* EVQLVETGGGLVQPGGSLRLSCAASGFTLNSYGISWVRQAPGKGPEWVSVIYSDFRRTFYGDTVKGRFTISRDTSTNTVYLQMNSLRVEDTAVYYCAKGRAAGTFSSWGQGTLVTVSS: nd, nd, nd
* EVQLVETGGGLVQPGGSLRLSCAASGFTLNSYGISWVRQAPGKGPEWVSVIYKDGRRTFYGNTVKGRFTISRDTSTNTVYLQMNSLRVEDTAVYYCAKGRAAGTFDSWGQGTLVTVSS: nd, nd, nd
* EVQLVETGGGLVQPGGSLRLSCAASPFTLNSYGISWVRQAPGKGPEWVSVIYWDGRRTFYGDNVKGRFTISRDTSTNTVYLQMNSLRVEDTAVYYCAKGRAAGTFDSWGQGTLVTVSS: nd, nd, nd
* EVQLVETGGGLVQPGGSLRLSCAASGFTLNSYGISWVRQAPGKGPEWVSVIYGDGRRTFYGDWVKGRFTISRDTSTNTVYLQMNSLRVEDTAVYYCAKGRAFGTFDSWGQGTLVTVSS: nd, nd, nd
* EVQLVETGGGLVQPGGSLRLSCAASGFTLNSYGISWVRQAPGKGPEWVSVIYSDGRRTFYGDFVKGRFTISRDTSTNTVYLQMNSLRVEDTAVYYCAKGRACGTFDSWGQGTLVTVSS: nd, nd, nd
* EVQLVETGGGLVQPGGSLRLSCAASGFTLNSYGISWVRQAPGKGPEWVSVIYSDGRRTFYGDIVKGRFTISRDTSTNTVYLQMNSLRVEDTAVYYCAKGRAAGTFKVWGQGTLVTVSS: nd, nd, nd

The closing 2 entries, repeated:

VH,"replicates, log10 nM","log10 Kd (nM), mean"
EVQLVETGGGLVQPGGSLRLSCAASGFTLNSYGISWVRQAPGKGPEWVSVIYSDGRRTFYGDFVKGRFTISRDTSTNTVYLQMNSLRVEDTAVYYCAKGRACGTFDSWGQGTLVTVSS,"nd, nd, nd",nd
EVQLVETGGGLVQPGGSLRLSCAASGFTLNSYGISWVRQAPGKGPEWVSVIYSDGRRTFYGDIVKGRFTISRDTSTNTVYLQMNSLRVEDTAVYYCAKGRAAGTFKVWGQGTLVTVSS,"nd, nd, nd",nd

For reference, the parent read 0.65 as the reference entry and 4.11 (one replicate of three) as a member of this library.

Source: Engelhart et al. 2022 (doi:10.1038/s41597-022-01779-4), MIT Lincoln Laboratory and A-Alpha Bio; data file from the FLAb repository.